Binding of CDR-mutated scFvs to a peptide of the spike HR2 region

Antigen: PDVDLGDISGINAS, a 14-residue peptide of the SARS-CoV-2 spike HR2 region.

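Designed CDR sequences, proposed from the first random library and measured here. Several design methods are mixed in this list. The assay is AlphaSeq: two haploid yeast populations carry antibody and antigen on their surface. Mating (16 h, 30 °C) was followed by selection of diploids and sequencing of their barcodes. Read counts were normalised to the haploid input and turned into Kd by a linear fit to BCL2-family pairs of known affinity, for each replicate. The assay was run in six technical replicates.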

Ab-14 is the parent antibody, in scFv form: VH, then the linker GGGGSGGGGSGGGGS, then VL. The heavy chain is unchanged in all variants.
VH: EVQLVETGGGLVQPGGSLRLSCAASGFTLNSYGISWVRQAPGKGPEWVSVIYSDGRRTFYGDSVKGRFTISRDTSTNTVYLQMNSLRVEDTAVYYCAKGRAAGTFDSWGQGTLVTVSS
VL: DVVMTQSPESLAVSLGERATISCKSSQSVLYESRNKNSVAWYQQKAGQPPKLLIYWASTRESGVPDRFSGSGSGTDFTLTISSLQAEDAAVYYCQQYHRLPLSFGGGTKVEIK

Each variant is given by its three light chain CDRs, as the data file delimits them; those of the parent are KSSQSVLYESRNKNSVA, WASTRES, QQYHRLPLS. Numbers give log10(Kd / nM), so 0 is 1 nM and 3 is 1 µM. Smaller is tighter. The mean shown is taken over the replicates in which the pair was detected. "no signal" means that the variant was in the library but no mating with the target was seen in any replicate; the authors take this as a sign of poor binding, and no number exists. Nonspecific signal, from three strains lacking the peptide, appeared in 4% of pairings of all light chain designs, centred on 2.64 (5% of these signals below 1.59); values are not corrected for it.

| mean, log10 nM | replicates with signal | CDR-L1 | CDR-L2 | CDR-L3 |
|---|---|---|---|---|
| -0.52 | 6/6 | KSSQGWLYESRNKNSVA | NASTRED | QQYHRLPLS |
| -0.23 | 6/6 | KLSQSPLYESRNKNSVA | EASTRES | QQYHRLPLS |
| 3.85 | 1/6 | KSSQSVLYYSRNKNSVA | WASTRES | QQYHRLPLS |
| 0.16 | 6/6 | KLSQSVEQLSRNKNSVA | QASQREV | QAYHRLPLS |
| 0.59 | 6/6 | MFALYQDSMGDAKNSIA | DRNTKAH | QQYSRLPLV |
| 1.89 | 2/6 | KSSQSVGKESRWENSVA | WASTRES | QQYHRLPLS |
| 0.21 | 6/6 | KFSQSVLYESRTKNSVA | NWSTRES | QQYERLPLS |
| -0.21 | 6/6 | KLRMSTLYESRNKNSVA | DASTRES | QQYHRLPLS |
| 2.64 | 2/6 | KSSQSVAYESMNINSVA | WASMRES | QQYHRLPLS |
| no signal | 0/6 | KMSQSVLYEDRNKNSVA | QASTREP | QQYHRLILS |
| 1.25 | 6/6 | TISQSFFMENQFKNSVA | QASTRES | QCYDRLPLS |
| 0.64 | 6/6 | KCSQSVLYESRNKNSVA | MASTRES | QQYHRLPLS |
| -0.39 | 6/6 | KLSQSVLYESRNKNSVA | NASQREE | QQYHRLPLS |
| 0.36 | 6/6 | KISQAYLYESRNCNSVA | QANYRES | QQYHRLPLS |
| 0.69 | 6/6 | KLEGSHLYESRNANSVA | NASTRMS | QQYHRLPLS |
| 0.05 | 6/6 | QLDWYNSTATAAKNSVA | GVAQRMN | QQYMRLPLM |
| -0.06 | 6/6 | TLGDVTRMESTKKNSIA | DMSNRAD | QQYHRLPLS |
| 1.77 | 1/6 | KQSVSVLYESRNKNSVA | WASTRES | QQYHRDPLS |
| -0.10 | 6/6 | HLSQVVLYESRNKNSVA | NASTRES | QQYHRLPLS |
| 0.07 | 6/6 | KCSQSVLYESRNKNNVA | EASTRES | QQYHRLPLS |
| 1.85 | 5/6 | KSSLSVLYDSMNPNSVA | WASIRED | QQYHRLPLH |
| 1.05 | 4/6 | KISQSVLYESFNKNSVA | WASTRES | QQYHRLPLS |
| 0.80 | 6/6 | KSSQSVLYESRNKNSVA | NASTRES | QQYHRLPLG |
| 0.51 | 6/6 | KIQQGELMESRNKNSVA | HASERES | QQYHRLPLS |
| 1.15 | 2/6 | MISQLMNMGTFAINSVA | QATIRNE | QQYDRLPLA |
| 1.97 | 6/6 | KFSQSVLYESRNKNSVA | WASTRES | QQCDRLPLG |
| -0.09 | 6/6 | KSSQSVLYESSNKHSVA | DASTRES | QQYHRLPLS |
| -0.20 | 6/6 | KMSQSFLMESRNGNSVA | NASKRES | QQYHRLPLS |
| 0.47 | 6/6 | RFTDHFLGLGNGRQAIA | HATVAVE | QQYHQLPLA |
| 0.79 | 6/6 | KWQYSWLYSSRNKNSVA | EGSTRES | QQYHRLPLS |
| 0.21 | 6/6 | KVLQSVVYEGRNKNSVA | HASTREQ | QQYHRLPLS |
| -0.11 | 6/6 | KLSASQLYESRNSNAVA | NASTRMM | QQYHRLPLS |
| -0.32 | 6/6 | KLSQSMGYESRNKNSVA | NASTRES | QQYHRLPLS |
| -0.14 | 6/6 | KVEQSNDYESRNKQSVA | NASQRLS | QQYHRLPLS |
| 0.49 | 6/6 | KLSQHVEYESRNKNSVA | NAQTRLK | QQYHRLPLS |
| -0.15 | 6/6 | KLQQSVLYQSRNKNSVA | GASTRES | QQYHRLPLS |
| 1.13 | 6/6 | KIYQLGLGSQKIMRNIA | ETSTRCT | QSYQRLPLS |
| no signal | 0/6 | KLLQSVNYGSRALNSVA | QMETRED | QQYERLPLS |
| no signal | 0/6 | KSSQHPLYESRNKNSVA | WSSTRED | QQYHRLPIS |
| 3.14 | 2/6 | KLTAKQNPYDQNYSNIA | EETNSLQ | QQYHHLPLS |
| 0.21 | 6/6 | KESQSWLYESRNKNNVA | GASTRES | QQYHRLPLS |
| -0.22 | 6/6 | KLSGSVEQLSRNKNSVA | QASTREV | QAYHRLPLS |
| 1.22 | 6/6 | NISHFMDVTAKHNNNVA | EMTMREN | QQYHHLPLS |
| no signal | 0/6 | IVSQLMLWGMHARNSIA | EAVTRLN | QQYDRLPLI |
| 1.76 | 1/6 | KSSSSVLYESRNKNSVA | WASTRES | QTYHRLPLS |
| 1.31 | 6/6 | MFSQLVYTGSRTKNAVA | QASTREN | QQYHRLPLI |
| 0.84 | 6/6 | KVSPSWLGEDRNCNAVA | QASQRES | QQYHRLPLS |

Picked from the list: the 3 lowest averages where every replicate gave a value.

| CDR-L1 | CDR-L2 | CDR-L3 | mean, log10 nM | replicates with signal |
|---|---|---|---|---|
| KSSQGWLYESRNKNSVA | NASTRED | QQYHRLPLS | -0.52 | 6/6 |
| KLSQSVLYESRNKNSVA | NASQREE | QQYHRLPLS | -0.39 | 6/6 |
| KLSQSMGYESRNKNSVA | NASTRES | QQYHRLPLS | -0.32 | 6/6 |

The authors averaged sequences with at least three values out of six and counted those with two or fewer as poor binders. Of ten entries with the parent sequence, four were seen in most replicates (averages 0.34 to 2.37), three in one and three in none, so single entries are noisy. The range of this assay differs from that of the first round, and the authors advise against merging the two.

The measurements come from Li et al. 2023 (doi:10.1038/s41467-023-39022-2) through the FLAb antibody collection.